Data: patent publication US10894786B2, “Substituted pyrazole derivatives as selective CDK12/13 inhibitors” (Aurigene Discovery Technologies Limited, priority 2018, dated 2021)

Sequences of proteins named here, by UniProt entry; tags and fusion partners are left off.
UniProt Q9NYV4, whole entry, looked up: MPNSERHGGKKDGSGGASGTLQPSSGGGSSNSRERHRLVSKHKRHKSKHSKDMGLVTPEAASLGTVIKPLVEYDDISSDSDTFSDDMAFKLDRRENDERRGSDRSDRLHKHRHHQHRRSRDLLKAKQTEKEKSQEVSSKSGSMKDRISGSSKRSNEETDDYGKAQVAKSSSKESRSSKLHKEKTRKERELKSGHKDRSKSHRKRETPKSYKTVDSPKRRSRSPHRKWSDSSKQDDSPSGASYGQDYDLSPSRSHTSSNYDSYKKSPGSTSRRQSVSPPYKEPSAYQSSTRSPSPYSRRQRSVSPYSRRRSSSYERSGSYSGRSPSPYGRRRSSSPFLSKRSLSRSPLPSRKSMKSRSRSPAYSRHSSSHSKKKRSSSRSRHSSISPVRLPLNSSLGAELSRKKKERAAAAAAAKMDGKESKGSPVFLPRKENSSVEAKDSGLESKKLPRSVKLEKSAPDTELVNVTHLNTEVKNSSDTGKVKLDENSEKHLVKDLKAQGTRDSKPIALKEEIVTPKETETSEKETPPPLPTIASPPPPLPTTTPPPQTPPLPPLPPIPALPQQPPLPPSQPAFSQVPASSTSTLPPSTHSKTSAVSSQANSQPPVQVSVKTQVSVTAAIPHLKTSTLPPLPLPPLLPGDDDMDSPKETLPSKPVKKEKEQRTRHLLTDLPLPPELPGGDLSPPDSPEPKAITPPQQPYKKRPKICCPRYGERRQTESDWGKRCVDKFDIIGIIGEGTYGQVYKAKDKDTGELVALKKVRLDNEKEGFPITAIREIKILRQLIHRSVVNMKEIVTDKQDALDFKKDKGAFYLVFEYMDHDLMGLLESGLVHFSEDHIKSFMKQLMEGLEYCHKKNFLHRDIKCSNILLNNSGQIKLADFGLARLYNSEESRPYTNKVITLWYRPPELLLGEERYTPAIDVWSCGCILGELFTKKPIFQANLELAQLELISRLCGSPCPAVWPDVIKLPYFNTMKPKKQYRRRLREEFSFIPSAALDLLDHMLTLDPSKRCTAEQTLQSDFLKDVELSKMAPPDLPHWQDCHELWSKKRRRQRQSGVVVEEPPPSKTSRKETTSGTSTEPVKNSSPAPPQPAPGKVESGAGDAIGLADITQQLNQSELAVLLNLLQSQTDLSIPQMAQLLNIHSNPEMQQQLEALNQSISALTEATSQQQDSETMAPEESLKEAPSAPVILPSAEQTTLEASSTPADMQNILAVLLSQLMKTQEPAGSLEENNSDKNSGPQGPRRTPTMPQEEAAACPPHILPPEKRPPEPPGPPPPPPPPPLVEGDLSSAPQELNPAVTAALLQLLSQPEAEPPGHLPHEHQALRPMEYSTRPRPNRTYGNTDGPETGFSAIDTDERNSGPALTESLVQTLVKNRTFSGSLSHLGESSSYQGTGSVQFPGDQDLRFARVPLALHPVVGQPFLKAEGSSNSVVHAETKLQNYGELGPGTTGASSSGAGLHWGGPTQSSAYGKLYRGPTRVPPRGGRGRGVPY
UniProt P50613, whole entry, looked up, species assumed: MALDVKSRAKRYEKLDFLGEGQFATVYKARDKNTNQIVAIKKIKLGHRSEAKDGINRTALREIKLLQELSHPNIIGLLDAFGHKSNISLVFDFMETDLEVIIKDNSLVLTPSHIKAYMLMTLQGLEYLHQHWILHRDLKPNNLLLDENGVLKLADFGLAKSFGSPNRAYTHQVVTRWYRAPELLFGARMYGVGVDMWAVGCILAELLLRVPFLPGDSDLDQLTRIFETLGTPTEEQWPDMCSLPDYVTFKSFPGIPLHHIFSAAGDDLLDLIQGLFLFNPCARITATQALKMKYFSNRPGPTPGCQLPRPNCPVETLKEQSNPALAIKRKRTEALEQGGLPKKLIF

Key:
CDK12 [1] = molecular target: T1, CDK12 (Homo sapiens (Human), UniProt Q9NYV4); assay: CDK12 plate based target engagement assay in Jurkat cells; type: cell-based; conditions: 6 hours
Protocol: Jurkat cells were treated with varying concentrations of the compound for 6 hours. The DMSO concentration was maintained at 0.1%. Cells were harvested and lysed. 200 μg of the lysate was incubated with 1 μM Bio-THZ531 in the presence of 1 mM DTT and incubated on a rocker at 4° C. overnight. 100 μL of this sample was added to pre-washed streptavidin coated plates and incubated at room temperature on a rocker for 2 hours. The plates were washed and incubated with CDK12 antibody for overnight at 4° C. Next day the plate was washed and incubated for 2 hours with HRP labelled anti rabbit secondary antibody. Bio-THZ531 bound CDK12 was determined using TMB substrate. The plates were read using the M3 spectrophotometer at […]. Percentage CDK12 occupancy with the test compound was calculated over untreated control. Occupancy 50 was calculated by fitting the dose response data to sigmoidal curve fitting equation using GraphPad Prism software V5.

CDK12 [2] = molecular target: T1, CDK12; assay: Biochemical assay for CDK12 (Kd determination), kinase-tagged phage/qPCR competition binding
Protocol: Kinase-tagged T7 phage strains were grown in parallel in 24-well blocks in an E. coli host derived from the BL21 strain. E. coli were grown to log-phase and infected with T7 phage from a frozen stock (multiplicity of infection=0.4) and incubated with shaking at 32° C. until lysis (90-150 minutes). The lysates were centrifuged (6,000×g) and filtered (0.2 μm) to remove cell debris. The remaining kinases were produced in HEK-293 cells and subsequently tagged with DNA for qPCR detection. […] The liganded beads were blocked with excess biotin and washed with blocking buffer (SeaBlock (Pierce), 1% BSA, 0.05% Tween 20, 1 mM DTT) to remove unbound ligand and to reduce non-specific phage binding. […] Test compounds were prepared as 40× stocks in 100% DMSO and directly diluted into the assay. All reactions were performed in polypropylene 384-well plates in a final volume of 0.02 ml. […] The kinase concentration in the eluates was measured by qPCR.

CDK12 [3] = molecular target: T1, CDK12; assay: Biochemical assay for CDK12 (IC50 determination), LANCE TR-FRET; conditions: ATP 100 μM, 60 min pre-incubation
Protocol: The inhibitory activity of the test compounds was assessed by the LANCE TR-FRET assay, which detects the ATP-dependent phosphorylation of an ULight-4E-BP1 (Thr37/Thr46) substrate peptide (100 nM) by CDK12 (30 nM). Briefly, the enzyme reaction was run in reaction buffer (25 mM HEPES (pH 7.5), 10 mM MgCl2, 0.01% BSA, 0.01% Triton x, 1 mM DTT). The assay was performed in 384-well plate format. The end concentration of the ATP substrate was 100 μM, and that of the ULight-4E-BP1 (Thr37/Thr46) substrate peptide was 100 nM, and of CDK12 was 30 nM. Pre-incubation of the compound and enzyme was performed for 60 min at room temperature. After 60 min incubation at room temperature, the reaction was terminated by the addition of 40 mM EDTA and 0.5 nM Eu-labeled anti-phospho-eIF4E-binding protein (Thr37/46) antibody in LANCE detection buffer. Time-resolved fluorescence (excitation, 320 nm; emission donor, 615 nm; emission acceptor, 665 nm) was monitored by using 2030 multilabel reader Victor5 (PerkinElmer). The readout was calculated as (acceptor counts/donor counts)×1000. The IC50 values were derived by fitting a sigmoidal dose-response curve to a plot of assay readout over inhibitor concentration. All fits were computed with the program Prism 5.03 (Graph Pad Software, San Diego, Calif.).

CDK7 = CDK7 (Homo sapiens (Human), UniProt P50613); assay: Biochemical assay for CDK7, LANCE TR-FRET; conditions: ATP 1 mM/100 μM, 60 min pre-incubation; read-out: CDK 7 IC50
Protocol: The inhibitory activity of the test compounds was assessed by the LANCE TR-FRET assay, which detects the ATP-dependent phosphorylation of an ULight-myelin basic protein (MBP) substrate peptide (100 nM) by CDK7 (10 nM). Briefly, the enzyme reaction was run in reaction buffer (20 mM HEPES (pH 7.5), 10 mM MgCl2, 0.01% Triton x, 100 μM Sodium Orthovanadate, 1 mM DTT). The assay was performed in 384-well plate. The end concentration of the ATP substrate was 1 mM/100 μM, and that of the ULight-MBP substrate peptide was 100 nM, and of CDK7 was 10 nM. Pre-incubation of the compound and enzyme was performed for 60 min at room temperature. After 60 min incubation at room temperature, the reaction was terminated by the addition of 40 mM EDTA and 1 nM Eu-labeled anti-phospho-MBP-binding protein antibody in the buffer. […] The readout was calculated as (acceptor counts/donor counts)×1000. The IC50 values were derived by fitting a sigmoidal dose-response curve to a plot of assay readout over inhibitor concentration.

CDK12 Target Occupancy (Tocc50) μM in Jurkat cells (CDK12 [1]): 0.014 µM
Kd (CDK12 [2]): 25 to 100 nM
IC50 (CDK12 [3]): 60 nM
IC50 (CDK7): 2290 nM
Structure (SMILES): C=CC(=O)N1CC=C(c2ccc([C@H](C)C(=O)Nc3cc(C4CC4)[nH]n3)cc2)CC1 [Compound 2, (S)-2-(4-(1-acryloyl-1,2,3,6-tetrahydropyridin-4-yl)phenyl)-N-(5-cyclopropyl-1H-pyrazol-3-yl)propanamide]
